Only a part is listed here, and it is no random draw. Some tests of the compounds listed are not included; inactive here does not mean inactive elsewhere. Records with an inconclusive call do not appear. Calls of active or inactive are those of the source. The call rests on the fitted dose curve; in most records, active means well fitted cell-killing curve with a large enough effect; inconclusive means small, poorly fitted or top-dose-only effect, or effect the other way; inactive means flat fitted curve, though single readings scatter.

The source of these data is PubChem BioAssay AID686970 (National Center for Advancing Translational Sciences (NCATS), 2013).

The assay can be described thus: qHTS for induction of synthetic lethality in tumor cells producing 2HG: qHTS for the HT-1080-NT fibrosarcoma cell line.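 Further: NT is the 2HG producing partner of a matched IDH1 knockdown line; 0% = DMSO-treated cells and -100% = media-only wells without cells; nearly all actives have a fitted effect of over 55% in size.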 The note with it: HT-1080-NT fibrosarcoma viability, CellTiter-Glo ATP luminescence, 48 h; at 46.1 µM (top of the series). Background: Quantitative high-throughput screening tests each substance at several concentrations.
Regarding `O=C(OC1CN2CCC1CC2)C(CO)(c1ccccc1)c1ccccc1` (stereo unspecified), the activity, negative = less viability was inactive: -2.65%.
The result for `CC(C)Oc1ccc(C(=O)NCC2(N(C)C)CCCCC2)cc1` reads inactive: 10.7%; that for `O=C(OCCN1CCCC1)C(O)(c1ccccc1)c1ccccc1`, inactive: 9.31%; that for `CN(C)c1cccc(C(=O)NCC2(N(C)C)CCCCC2)c1`, inactive: -2.04%.
As for `C=C(C)C#CC(O)(C(=O)OC1CCN(C)CC1)c1ccccc1` (stereo unspecified), the activity, negative = less viability was inactive: -7.1%.
The figure for `COc1ccc(Br)c(C(=O)NCC2(N3CCCCC3)CCCCC2)c1` is inactive: -1.2%; for `COc1cc(C(=O)NCC2(N(C)C)CCCCC2)c([N+](=O)[O-])cc1OC` it is inactive: 6.05%; for `CN(C)C1(CNC(=O)c2ccc(Br)cc2)CCCCC1` it is inactive: 0.814%.
Consider `O=C(NCC1(N2CCCCC2)CCCCC1)c1cccc(Cl)c1`, for which the activity, negative = less viability was inactive: -20.5%.
The figure for `COc1cccc(C(=O)NCC2(N3CCCCC3)CCCCC2)c1` is inactive: 10.3%.
The figure for `COc1ccc(Cl)cc1C(=O)NCC1(N(C)C)CCCCC1` is inactive: 17.9%; for `Cc1ccccc1C(=O)NCC1(N2CCCCC2)CCCCC1` it is inactive: -3.26%; for `CN(C)c1ccc(C(=O)NCC2(N(C)C)CCCCC2)cc1` it is inactive: -7.75%.
`CN(C)C1CCCC1OC(=O)C(O)(c1ccccc1)c1ccccc1` (stereo unspecified): the activity, negative = less viability was inactive: 10.5%.
The result for `COc1ccc(C(=O)NCC2(N(C)C)CCCCC2)cc1` reads inactive: 6.3%.
As to `CCN1CCCC(OC(=O)C2(O)c3ccccc3C=Cc3ccccc32)C1` (stereo unspecified), the activity, negative = less viability is inactive: -13.4%.
With `Cc1cc(C(=O)NCC2(N3CCCCC3)CCCCC2)ccc1[N+](=O)[O-]`, the activity, negative = less viability was inactive: 9.11%.
The figure for `O=C(NCC1(N2CCCCC2)CCCCC1)c1cccc(Br)c1` is inactive: -25.6%; for `C=CCN1CCN(CCOC(=O)C(O)(c2ccccc2)c2ccccc2)CC1` it is inactive: 0.348%; for `O=C(NCC1(N2CCCCC2)CCCCC1)c1cc(F)c(F)cc1Cl` it is inactive: -0.967%.
The result for `CN1[C@@H]2CC[C@H]1CC(OC(=O)C(O)(c1ccccc1)c1ccccc1)C2` (stereo partly specified) reads inactive: -4.95%; that for `O=C(NCC1(N2CCCCC2)CCCCC1)c1cc([N+](=O)[O-])ccc1Cl`, inactive: -0.218%.
The result for `Cc1ccc(C(=O)NCC2(N3CCCCC3)CCCCC2)cc1` reads inactive: -6.17%; that for `CCN(CC)CC(C)C(C)OC(=O)C(O)(c1ccccc1)c1ccccc1` (stereo unspecified), inactive: -26.6%; that for `COc1cc(SC)ccc1C(=O)NCC1(N(C)C)CCCCC1`, inactive: 9.11%.
With `CC(C)N1C(=O)CC2(CCN(CCOC(=O)C(O)(c3ccccc3)c3ccccc3)CC2)C1=O`, the activity, negative = less viability is inactive: 4.42%.
